The text below walks through data of patent US4396606A, “Novel polypeptide analgesics” (Addiction Research Foundation, priority 1979, dated 1983).

In one assay the target is rat brain membranes. Kind of assay: radioreceptor binding assay. The following applies: 1 nM radioligand, 1 h at 23°. On the procedure:
The radioreceptor binding assay used well washed rat brain membranes that had been incubated for 30 min at 37° with 100 mM NaCl to remove bound endogenous ligands. Blume (1978) Proc. Natl. Acad. Sci. 75, 1713. Several radioligands (1 nM final concentration) and competing ligands were tested. Competing ligands were added to the membrane suspension in Tris buffer, pH 7.4 at 23°, and radioligand was added immediately thereafter. Assay volume was 500 μl. After incubation (1 h, 23°), the mixture was chilled, filtered, washed twice, and counted. Displacement of radioligand by levallorphan (1 μM final concentration) was taken as measure of stereospecific saturable binding; this was usually about 70% of total binding. […] Methanol-HCl solvent, present in all incubation tubes in a volume of 5 μl, had no effect on control binding.
Effects of dynorphin-(1-13) in the radioreceptor binding assay. Washed membranes from rat brain homogenate, 1 h incubation at 23°. Data are IC50 values (nM) from complete log dose-inhibition curves for inhibition of stereospecific binding of the various radioligands. […] DADLE=D-ala^2 -D-leu^5 -enkephalin. DHM=dihydromorphine.

Assay [1] relates to guinea pig ileum myenteric plexus-longitudinal muscle preparation. Briefly: guinea pig ileum myenteric plexus-longitudinal muscle preparation bioassay. The class given is cell-based. The conditions noted are these: inhibition of electrically stimulated twitch; geometric mean of several muscle strips. An excerpt: Starting material was 100 g MSH concentrate, the second oxycellulose adsorbate in commercial ACTH production from procine pituitary glands (Schally et al (1962) Endocrinology 71, 164). The initial steps, with 25 g batches, have been described in Lowney et al (1979) Life Sci. 24, 2377: extraction and back-extraction with butanol; separation from β-endorphin on Bio-Gel P6; preparative reversed-phase HPLC on C18 columns, first with a methanol gradient in trifluoroacetic acid (TFA), then with an acetonitrile gradient in Tris buffer at neutrality, followed by elution of the active material with TFA. Every step was monitored by assay on the guinea pig ileum myenteric plexus-longitudinal muscle preparation. Kosterlitz & Waterfled (1975) Ann. Rev. Pharmacol. 15, 29; Schulz & Goldstein (1973) Brit. J. Pharmacol. 48, 655.
The guinea pig ileum myenteric plexus-longitudinal muscle preparation was used as described in Kosterlitz et al, supra, and Schulz & Goldstein, supra. […] Kd values for naloxone as an antagonist were determined from the ratio of IC50 values in the presence and absence of a fixed naloxone concentration. […] IC50 and naloxone Kd values were determined as above. […]

In the next assay the test system is mouse vas deferens. Kind of assay: mouse vas deferens bioassay. The class given is cell-based. An excerpt: The guinea pig ileum myenteric plexus-longitudinal muscle preparation was used as described in Kosterlitz et al, supra, and Schulz & Goldstein, supra. A determination of IC50 was done by bracketing, with at least one concentration giving more than, and one giving less than 50% inhibition of the electrically stimulated twitch, and interpolating on a log concentration-percent inhibition plot. Geometric means of IC50 values from several muscle strips were obtained, with standard errors in log units. Kd values for naloxone as an antagonist were determined from the ratio of IC50 values in the presence and absence of a fixed naloxone concentration. The mouse vas deferens was used as described in Hughes at al (1975) Brit. J. Pharmacol. 53, 371. IC50 and naloxone Kd values were determined as above.
Effects of dynorphin-(1-13) in two bioassays. IC50 values were obtained from assays spanning the 50% inhibition response, plotted on log dose-percent inhibition plots. Naloxone Kd is the apparent dissociation constant of the antagonist, computed from the equation Kd =[…]/(D.R.-1), derived from the mass law for competitive antagonism, where C=concentration of naloxone (here 100 nM), and D.R.=dose ratio of agonist, the ratio of IC50 doses in the presence and absence of the antagonist. The same procedures were followed with the mouse vas deferens. […]

The test system of assay [2] is antiserum to dynorphin (1-13)-thyroglobulin conjugate. Kind of assay: dynorphin radioimmunoassay. The class given is binding, rabbit. The source says:
The subject dynorphin was used for the development of immunoassays, illustrated particularly by a radioimmunoassay. For carrying out the immunoassay, it is necessary to prepare antigens which specifically recognize the oligopeptide, in this case dynorphin. To prepare antigen conjugates, thyroglobulin was conjugated to synthetic dynorphin (1-13). The procedure for preparing the antigen conjugate, injecting the antigen conjugate into animals and isolating the antisera is described as follows.
Synthetic dynorphin (1-13) (3.25 μmoles, 5.2 mg) was dissolved in 2 ml of 100 mM sodium phosphate buffer at neutrality. To the mixture was added with agitation 10^5 cpm of ^125 I-dynorphin to serve as a tracer. After addition of the tracer, 26 mg of thyroglobulin (bovine type 1, Sigma) was added and the mixture cooled in an ice-bath after the thyroglobulin dissolved. […]
Based on the coupling efficiency calculated from the cpm of the dialysis bag residue, after lyophilizing, sufficient of the conjugate was employed to provide 50-100 μg of coupled oligopeptide per rabbit. […]
The procedure for the assay was as follows: All solutions were in ice at the outset and all operations were carried out in ice. […] To a 13×100 mm borosilicate glass tube was transferred 850 μl of the supernatant and the tube counted for 5 min in a gamma counter. […]

The mark [3] stands for this setting: ^a = unusually shallow slope, read-out: IC50 for inhibition of stereospecific binding, radioligand 3H-DADLE.

Like-named read-outs stand apart in the source and are kept apart here.

Consider `Oc1ccc2c3c1O[C@H]1[C@@H](O)C=C[C@H]4[C@@H](C2)NCC[C@@]341` [Normorphine], for which, on rat brain membranes (setting [3]), the IC50 amounted to 23 nM.

With Leucine-enkephalin, the IC50 in assay [1] was found to be 460 nM; in the assay with mouse vas deferens (inhibition of electrically stimulated twitch, geometric mean), 23 nM; on rat brain membranes (setting [3]), 400 nM; at rat brain membranes (^a = unusually shallow slope, read-out: IC50 for inhibition of stereospecific binding, radioligand 3H-DHM) it was 2100 nM; on rat brain membranes (without Na, read-out: IC50 for inhibition of stereospecific binding, radioligand 3H-naloxone -Na), 6000 nM. Also, the “Potency in mouse vas deferens / potency in guinea pig ileum” value in the assay on mouse vas deferens (ratio of potencies in the two bioassays) came to 20. The “binding of labeled leucine enkephalin by the antiserum” value in assay [2] (antiserum concentration as high as 1:10 dilution, iodinated or tritiated) was “neither iodinated nor tritiated leucine enkephalin was bound”. The “cross reactivity with dynorphin in the radioimmunoassay” value in assay [2] (fragment substituted for dynorphin) was “no evidence of any cross reactivity”.
